Ab-95 light chain CDR variants: yeast mating affinities

Values reported by Engelhart et al. 2022, doi:10.1038/s41597-022-01779-4 (FLAb copy).

All variants were tested on one target, the spike HR2 peptide PDVDLGDISGINAS (SARS-CoV-2).

The variants keep the heavy chain, the linker and the frameworks of Ab-95 (scFv order VH, the linker GGGGSGGGGSGGGGS, VL).
VH: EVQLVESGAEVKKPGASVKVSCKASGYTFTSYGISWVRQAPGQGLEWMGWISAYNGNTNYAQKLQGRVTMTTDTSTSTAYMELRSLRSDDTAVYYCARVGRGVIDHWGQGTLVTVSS
VL: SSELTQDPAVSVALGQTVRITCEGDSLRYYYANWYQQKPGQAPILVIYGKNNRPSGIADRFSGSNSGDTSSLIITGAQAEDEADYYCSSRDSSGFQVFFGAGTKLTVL

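The starting antibody came from a phage panning campaign against this peptide. AAYL52 was designed without a model: most single CDR substitutions and a random sample of double and triple ones. Affinity was read by AlphaSeq, a pooled yeast mating assay with surface-displayed partners. Pairs that bind mate more often; barcode pairs of the diploids are counted by sequencing. Read counts were normalised to the haploid input and turned into Kd by a linear fit to BCL2-family pairs of known affinity, for each replicate. Mating was done three times.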

Positions count from residue 1 of the parent VL; A32Q puts Q in place of A. This list gathers variants with a substitution at A32 (VL, numbered from residue 1). Numbers give log10(Kd / nM), so 0 is 1 nM and 3 is 1 µM. Smaller is tighter. An entry "nd" has no value in the source: the pair was not observed among the diploids in that replicate. This suggests poor binding but is not conclusive.

With A32Q+D91Y+S92D the result was 5.55, nd, 4.40 (controls 1 of 9). For A32Y+S88A, the assay gave 3.05, 2.80, 3.10 (controls 0 of 9). Variant A32S+G49V gave 5.30, nd, nd (controls 2 of 9). Variant A32M+S89A+Q96D showed 3.79, 3.36, nd (controls 1 of 9). Variant A32I+R53H+D91L showed nd, nd, nd (controls 0 of 9). With A32R+S93Y+F95A the result was nd, nd, nd (controls 0 of 9). With G24K+A32N+V97G the result was nd, nd, nd (controls 2 of 9).

For A32H+S89H+R90L, the assay gave nd, 4.87, nd (controls 0 of 9). For E23D+A32T+S89V, the assay gave 2.46, 2.80, 2.46 (controls 1 of 9). Variant A32I+N52Q+R53P showed 2.96, 3.43, 3.15 (controls 3 of 9). Variant L27P+Y31C+A32H showed nd, nd, nd (controls 2 of 9). With Y31I+A32Y+G49H the result was nd, nd, nd (controls 2 of 9). With S26H+A32T+K50A the result was 2.47, 2.00, 1.71 (controls 1 of 9). With E23P+A32H+F95V the result was 4.38, 4.53, 3.71 (controls 6 of 9).

Variant Y31I+A32L+V97T showed nd, nd, 3.86 (controls 2 of 9). Variant L27W+A32H+N52T gave nd, nd, nd (controls 3 of 9). With R28W+A32W+F98N the result was 4.17, 4.70, 3.84 (controls 5 of 9). Variant A32Y+G49I+S93L gave nd, nd, 4.16 (controls 4 of 9). Variant Y31S+A32S+F95L gave 2.90, 1.98, 2.89 (controls 0 of 9). With G24Q+A32F+S92F the result was 4.23, nd, 4.10 (controls 0 of 9). For A32L+N52S+G94A, the assay gave nd, nd, 4.03 (controls 2 of 9).

With A32M+F95C the result was nd, nd, nd (controls 1 of 9). Variant G24T+A32W+Q96R gave nd, 3.04, nd (controls 3 of 9). For A32Q+S92C+G94Q, the assay gave 3.75, 3.61, nd (controls 1 of 9). With R28Q+A32K+S55K the result was 3.34, 3.17, nd (controls 1 of 9). With D25C+A32M the result was 3.36, 2.45, 1.99 (controls 2 of 9). Variant A32N+N33S+N52V gave 2.59, 2.21, 2.14 (controls 1 of 9). With A32Y+N52S+D91G the result was 5.00, 3.56, nd (controls 2 of 9).

For A32Q+G49D+K50T, the assay gave nd, 4.66, nd (controls 2 of 9). Variant S26Y+A32D+N52H showed 4.62, 3.76, nd (controls 6 of 9).

4 of these entries, quoted again:

changes	log10 Kd, replicates	empty controls
A32I+R53H+D91L	nd, nd, nd	0 of 9
R28Q+A32K+S55K	3.34, 3.17, nd	1 of 9
A32Y+G49I+S93L	nd, nd, 4.16	4 of 9
A32I+N52Q+R53P	2.96, 3.43, 3.15	3 of 9

Nonspecific signal, from three strains lacking the peptide, appeared in 28% of pairings of library AAYL52, centred on 3.91 (5% of these signals below 2.90); values are not corrected for it. The control count says in how many pairings with the empty strains this scFv gave a signal.